Among the data in ChEMBL document CHEMBL1165876, “Novel bis-phenanthridine derivatives with easily tunable linkers, study of their interactions with DNA and screening of antiproliferative activity” (Eur J Med Chem, 2010) are log Ks values, retold here.

Assay [1] concerns Calf thymus DNA. The assay can be described thus: Binding affinity to calf thymus DNA assessed as fluorescence quenching at pH 5 by fluorimetric titration. The assay is classed as nucleic-acid assay. Conditions: Bos taurus.
Assay [2] concerns Calf thymus DNA. The assay is described as follows: Binding affinity to calf thymus DNA assessed as fluorescence quenching at pH 7 by fluorimetric titration. The note with it: Bos taurus. The assay is classed as nucleic-acid assay.

In the case of `Cc1nc2ccccc2c2ccc(C[C@H](NC(=O)CNC(=O)[C@@H](N)Cc3ccc4c(c3)c(C)nc3ccccc34)C(=O)O)cc12`, the log Ks in the assay on Calf thymus DNA [1] was 6.9; with Calf thymus DNA [2] it was 6.
With `Cc1nc2ccccc2c2ccc(C[C@H](N)C(=O)O)cc12`, the log Ks with Calf thymus DNA [1] turned out to be 5.4; with Calf thymus DNA [2], 4.5.
